Earlier results, collected in patent publication US20250236608A1, “EGFR INHIBITORS” (Blueprint Medicines Corporation, priority 2022, published 2025).

Test system: EGFR mutant NSCLC
Conditions: EGFR M+ NSCLC patients treated first line (1 L); cited from earlier work

SMILES: COc1cc2ncnc(Nc3ccc(F)c(Cl)c3)c2cc1OCCCN1CCOCC1 [gefitinib]
- objective response rate (ORR): 60-85%
